The series can be described thus: in vivo. Particulars: mouse, ip. The procedure: To determine this toxicity, C.F.L.P. strain albino mice of both sexes, weighing between 19 and 25 grams, have been used as experimental animals. After an 18 hour fast period with water "ad libitum" the derivatives which are the subjects of the present invention are administered intraperitoneally in 5% suspension in gum arabic. The volume of suspension administered has in all cases been 0.4 ml/20 grams (20 ml/kg), changing the concentration of the suspension according to the dose administered.
One hour after the administration of the derivatives, the animals are supplied with Panlab standard rat-mouse feed. The period of observation of mortality has been 7 days.

Regarding `CCn1cc(C(=O)O)c(=O)c2cnc(N3CCNCC3)nc21` [Pipemidic acid, reference compound], the LD50 (commonly the dose expected to kill half of the subjects tested) at 168 h was more than 1600 mg/kg.

For the origin of these results see patent US4552882A, “7-(1-Pyrrolyl) derivatives of 1-ethyl-1,4-dihydro-4-oxoquinoline-3-carboxylic acids and 1-ethyl-1,4-dihydro-4-oxo-1,8-naphthyridine-3-carboxylic acids and their use as antimicrobial agents” (Provesan, SA, priority 1983, dated 1985).
